The results in this text go back to ChEMBL document CHEMBL1146690, “Design and synthesis of aminopropyl tetrahydroindole-based indolin-2-ones as selective and potent inhibitors of Src and Yes tyrosine kinase” (Bioorg Med Chem Lett, 2004).

Protein sequences, listed by entry. Tags and fused reporters are not part of them. Lines headed by an entry give the natural chain unless they say otherwise; changes in a name come on top.
UniProt P06239: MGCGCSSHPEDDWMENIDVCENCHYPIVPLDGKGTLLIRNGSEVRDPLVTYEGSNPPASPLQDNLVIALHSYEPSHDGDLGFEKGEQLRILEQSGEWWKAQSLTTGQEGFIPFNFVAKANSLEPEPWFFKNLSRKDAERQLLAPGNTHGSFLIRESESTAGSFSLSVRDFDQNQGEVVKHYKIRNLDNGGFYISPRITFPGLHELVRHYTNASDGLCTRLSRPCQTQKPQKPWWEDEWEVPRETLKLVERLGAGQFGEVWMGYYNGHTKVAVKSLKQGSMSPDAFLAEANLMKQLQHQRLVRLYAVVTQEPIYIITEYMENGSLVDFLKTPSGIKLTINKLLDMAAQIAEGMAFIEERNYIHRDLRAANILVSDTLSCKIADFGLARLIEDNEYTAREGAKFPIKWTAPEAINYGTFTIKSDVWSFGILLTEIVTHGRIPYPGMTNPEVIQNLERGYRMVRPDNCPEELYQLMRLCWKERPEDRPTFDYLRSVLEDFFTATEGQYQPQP
UniProt P11362, whole entry: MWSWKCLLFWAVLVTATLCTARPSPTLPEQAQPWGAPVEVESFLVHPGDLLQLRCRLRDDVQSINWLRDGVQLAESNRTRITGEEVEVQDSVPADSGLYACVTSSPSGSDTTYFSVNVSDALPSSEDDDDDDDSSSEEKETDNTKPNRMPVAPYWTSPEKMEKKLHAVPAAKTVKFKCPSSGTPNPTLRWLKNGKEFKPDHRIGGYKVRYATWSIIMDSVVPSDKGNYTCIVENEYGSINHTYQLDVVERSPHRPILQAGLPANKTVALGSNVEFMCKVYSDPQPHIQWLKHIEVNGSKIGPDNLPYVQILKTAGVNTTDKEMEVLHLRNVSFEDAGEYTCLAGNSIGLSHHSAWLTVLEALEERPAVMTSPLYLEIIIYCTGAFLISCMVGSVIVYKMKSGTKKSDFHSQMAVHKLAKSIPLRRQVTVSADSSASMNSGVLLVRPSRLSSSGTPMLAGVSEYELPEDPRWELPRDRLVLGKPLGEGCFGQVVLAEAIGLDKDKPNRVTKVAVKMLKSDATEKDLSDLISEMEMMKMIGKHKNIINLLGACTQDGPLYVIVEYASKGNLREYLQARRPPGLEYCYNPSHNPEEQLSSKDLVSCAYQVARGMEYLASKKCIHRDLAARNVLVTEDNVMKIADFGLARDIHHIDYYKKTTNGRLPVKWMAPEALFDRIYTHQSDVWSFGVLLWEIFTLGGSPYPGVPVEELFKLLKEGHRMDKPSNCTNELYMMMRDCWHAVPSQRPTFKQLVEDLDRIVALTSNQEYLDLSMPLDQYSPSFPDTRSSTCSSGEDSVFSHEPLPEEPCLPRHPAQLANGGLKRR

pIC50: −log10 of the molar value.

In assay [1] the target is Tyrosine-protein kinase Lck (Homo sapiens, UniProt P06239). In words: Inhibitory activity against Lck tyrosine kinase.
In assay [2] the target is Fibroblast growth factor receptor 1 (Homo sapiens, UniProt P11362). In words: Inhibitory activity against Fibroblast growth factor receptor 1.

One may read the pIC50 as the IC50 on a negative log10 scale, so that one unit is a factor of ten. The low end stands for a high IC50, the high end for a low IC50. Consider `CNS(=O)(=O)c1ccc2c(c1)/C(=C/c1[nH]c3c(c1CCCN1CCOCC1)CCCC3)C(=O)N2`, for which, in assay [1], the pIC50 was 6.15.

Regarding `CCS(=O)(=O)c1ccc2c(c1)/C(=C/c1[nH]c3c(c1CCCN1CCC(O)CC1)CCCC3)C(=O)N2`, the pIC50 in assay [2] is 6.30.
